Results published in patent publication US20260124312A1 (Bicycle, published 2026).

The chains behind the UniProt entries cited, without tags or fusion partners. Residues count along the entry.
UniProt Q03145, 26-538: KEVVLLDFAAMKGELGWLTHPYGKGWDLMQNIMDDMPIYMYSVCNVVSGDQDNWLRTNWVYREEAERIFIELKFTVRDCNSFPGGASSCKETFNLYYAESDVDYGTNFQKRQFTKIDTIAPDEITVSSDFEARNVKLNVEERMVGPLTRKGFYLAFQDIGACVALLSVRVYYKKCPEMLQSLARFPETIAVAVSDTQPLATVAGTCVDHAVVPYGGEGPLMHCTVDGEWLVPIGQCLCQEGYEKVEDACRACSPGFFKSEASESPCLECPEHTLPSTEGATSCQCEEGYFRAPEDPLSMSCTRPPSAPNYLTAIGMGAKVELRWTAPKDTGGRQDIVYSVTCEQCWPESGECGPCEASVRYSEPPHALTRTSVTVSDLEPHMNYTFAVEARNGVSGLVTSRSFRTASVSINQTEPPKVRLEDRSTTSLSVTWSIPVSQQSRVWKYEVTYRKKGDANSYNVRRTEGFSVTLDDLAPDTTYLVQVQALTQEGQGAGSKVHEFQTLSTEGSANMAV

Assays:
[1] = target: T1, Mouse EphA2 (Ecto) (Mouse, UniProt Q03145 26-538); experiment: FP direct binding, selectivity
T1 construct: extracellular domain
Experimental: (§1) Peptides with a fluorescent tag (either fluorescein, SIGMA or Alexa Fluor488™, Fisher Scientific) were diluted to 2.5 nM in PBS with 0.01% tween 20 or 50 mM HEPES with 100 mM NaCl and 0.01% tween pH 7.4 (both referred to as assay buffer). This was combined with a titration of protein in the same assay buffer as the peptide to give 1 nM peptide in a total volume of 25 μL in a black walled and bottomed low bind low volume 384 well plates, typically 5 μL assay buffer, 10 μL protein (Table 1) then 10 μL fluorescent peptide. […] The gain used for analysis was determined for each tracer at the end of the 60 minutes where there was no protein in the well. […] “Lig” was a defined value of the concentration of tracer used.

[2] = target: Rat EphA2 (ligand binding), C-terminal polyHis (Rat); experiment: FP direct binding, selectivity
Experimental: as §1

Kd [1] [nM]	Kd [2] [nM]	Binder
216	252	ACYVGKECAYMNVCA (C-terminal Sar6-K(Fl); three Cys bound to TATA) [Bicycle Compound 7]
	210	ACVPDRRCAYMNVCA (C-terminal Sar6-K(Fl); three Cys bound to TATA) [Bicycle Compound 2]
